The results in this text go back to PubChem BioAssay AID2676 (National Center for Advancing Translational Sciences (NCATS), 2010).

Protein sequences, listed by entry. Tags and fused reporters are not part of them.
UniProt Q9HBX9, whole entry: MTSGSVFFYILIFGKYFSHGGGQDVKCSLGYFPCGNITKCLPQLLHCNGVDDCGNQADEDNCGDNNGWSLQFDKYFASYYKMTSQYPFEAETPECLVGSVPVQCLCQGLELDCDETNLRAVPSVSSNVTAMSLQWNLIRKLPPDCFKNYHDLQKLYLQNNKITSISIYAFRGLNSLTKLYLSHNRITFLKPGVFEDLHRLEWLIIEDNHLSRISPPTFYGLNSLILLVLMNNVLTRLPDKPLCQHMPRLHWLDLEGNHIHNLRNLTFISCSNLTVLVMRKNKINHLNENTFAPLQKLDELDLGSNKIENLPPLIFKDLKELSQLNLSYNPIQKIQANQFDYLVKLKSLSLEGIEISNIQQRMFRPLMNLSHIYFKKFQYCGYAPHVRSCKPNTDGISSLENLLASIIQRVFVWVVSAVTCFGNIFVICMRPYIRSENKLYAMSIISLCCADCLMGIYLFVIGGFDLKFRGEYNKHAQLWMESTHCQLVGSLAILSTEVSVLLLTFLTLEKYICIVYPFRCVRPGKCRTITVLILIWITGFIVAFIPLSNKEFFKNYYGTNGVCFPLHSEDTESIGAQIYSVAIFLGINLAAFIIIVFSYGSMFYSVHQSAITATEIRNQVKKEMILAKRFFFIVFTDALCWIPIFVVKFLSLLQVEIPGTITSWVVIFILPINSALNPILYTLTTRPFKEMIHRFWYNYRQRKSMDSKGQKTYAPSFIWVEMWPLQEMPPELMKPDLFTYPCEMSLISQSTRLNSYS

Molecules are shown by their SMILES. This is a selection; strong and weak results do not stand in their true shares. The source made the active and inactive calls. The call rests on the fitted dose curve; in most records, active means well fitted activation curve with a large enough effect; inconclusive means small, poorly fitted or top-dose-only effect; inactive means flat fitted curve, though single readings scatter.
On the % scale 0 is the no-effect control and ±100 the full control effect.

For this experiment, the target named is Relaxin receptor 1 (Homo sapiens) (UniProt Q9HBX9). As to the kind of experiment: qHTS Assay for Agonists of the Relaxin Receptor RXFP1. Further: nearly all actives have a fitted effect of over 60% in size. Particulars: HEK293T-RXFP1 cAMP TR-FRET, 30 min, percent of porcine relaxin response, buffer zero; at 57.5 µM (top of the series). An excerpt:
NIH Chemical Genomics Center [NCGC] NIH Molecular Libraries Probe Production Centers Network [MLPCN] MLPCN Grant: R03 MH085705-01A1 Assay Submitter (PI): Alexander Agoulnik NCGC Assay Overview: The relaxin hormone is involved in the variety of biological functions in normal tissues and diseases. The role of relaxin is well-established in female reproduction and parturition, mammary gland and endometrial development, maintenance of myometrial quiescence during pregnancy. Relaxin signaling through its G protein-coupled receptor (GPCR) RXFP1 results in ECM remodeling through regulation of collagen deposition, cell invasiveness, proliferation and overall tissue homeostasis. […] Recombinant human relaxin (rhRlx) is currently being tested in clinical trials as a protective agent in congestive heart failure, in treating severe preeclampsia, and as an anti-fibrotic agent in systemic sclerosis. Upon relaxin binding RXFP1 activation leads to the activation of adenylate cyclase (AC) via Gs. cAMP will activate PKA, which phosphorylates many signaling proteins. Thus, detection of cAMP increase is an easy and reliable indication of relaxin receptor activation. To screen for agonists of the relaxin receptor, a HEK293T cell line stably transfected with RXFP1 was used. RXFP1 activation was assayed by changes in cAMP levels as detected with a time-resolved fluorescence energy transfer (TR-FRET) cAMP detection kit.
NCGC Assay Protocol Summary: This is a cell-based assay for cAMP second messenger response to screen for agonists of the RXFP1 receptor. The assay was conducted in the presence of a PDE4 inhibitor (Ro 20174). The cells were lysed and the cAMP levels were measured with a TR-FRET cAMP kit. Presence of cAMP in the cell lysate disrupts binding between the cryptate-labeled anti-cAMP and d2-labeled cAMP pair, leading to a decrease in the TR-FRET signal. Data were normalized to the controls for basal activity (buffer only) and 100% activity (29 nM porcine relaxin). The EC50 values were determined from concentration-response data modeled with the standard Hill equation 1536-well assay protocol for the HEK293 RXFP1 cAMP assay: (1) Add 3 ul HEK293 RXFP1 cell culture. 2000 cells/well in DMEM/F12, 10% FBS, 1x Pen/Strep (dispensed offline with MultiDrop Combi). (2) Incubate 16-24 hr at 37C, 5% CO2. (3) Add 1 ul 400uM Ro20174 in DPBS, 0.05% BSA, 0.005% Tween 20. (3) Add 23 nl compounds in DMSO solution. Final concentration was 0.5 - 58 uM. (4) Incubate 30 min at 37C, 5% CO2. (5) Add 1 ul cAMP-d2 in lysis buffer (HTRF cAMP HiRange kit, CisBio). (6) Add 1 ul anti-cAMP antibody-cryptate in lysis buffer (HTRF cAMP HiRange kit, CisBio). (7) Incubate 30 min at room temperature. (6) Detect the assay plate in a ViewLux plate reader (PerkinElmer) with Ex=320 nm, Em1=615 nm and Em2=665 nm. Keywords: relaxin, RXFP1, RXFP2, G-protein coupled receptor, cAMP, agonist, high throughput screening, MLSMR, MLSCN, NIH Roadmap, qHTS and NCGC
For orientation: Quantitative high-throughput screening tests each substance at several concentrations.
For the compound `COc1cc(OC)cc(C(=O)NCC2(N3CCCCC3)CCCCC2)c1`, the activation is inactive: 5.84%. With `Cc1ccccc1C(=O)NCC1(N(C)C)CCCCC1`, the activation was inactive: -4.18%.

With `CN(C)c1ccc(C(=O)NCC2(N3CCCCC3)CCCCC2)cc1`, the activation was inactive: -4.44%.

`O=C(NCC1(N2CCCCC2)CCCCC1)c1ccco1`: the activation is inactive: -2.8%.

`CC(C)(C)c1ccc(C(=O)NCC2(N3CCOCC3)CCCCC2)cc1`: the activation is inactive: 0.0663%.

As for `CCN1CCC(Nc2cccc(F)c2)CC1`, the activation is inactive: -0.234%. Take `CCOC(=O)C(CC)C1=NC(C)(C)Cc2ccccc21.O=[N+]([O-])c1cc([N+](=O)[O-])c(O)c([N+](=O)[O-])c1` (configuration not stated): the activation is inactive: 0.502%. `O=C(NCC1(N2CCOCC2)CCCCC1)c1ccccc1[N+](=O)[O-]`: the activation is inactive: -0.35%. The value for `N#Cc1ccc(C(=O)NCC2(N3CCCCC3)CCCCC2)cc1` was inactive: -0.291%; that for `O=C(NCC1(N2CCOCC2)CCCCC1)c1ccc([N+](=O)[O-])cc1` was inactive: -2.1%. Take `CC(C)(C)OC(=O)N1CCC(N(C(=O)c2ccccc2)c2ccc(Cl)cc2)CC1`: the activation was inactive: 0%.

Regarding `CN(C)C1(CNC(=O)c2cccc(C#N)c2)CCCCC1`, the activation is inactive: -2.3%. In the case of `O=C(NCC1(N2CCOCC2)CCCCC1)c1ccccc1`, the activation was inactive: 1.83%. With `CCCN1CCC(Nc2cc(OC)cc(OC)c2)CC1`, the activation is inactive: 0.31%. Under `c1ccc(CN2CCC(Nc3ccccc3)CC2)cc1` stands inactive: -2.76%. Regarding `COc1ccc(C(=O)NCC2(N3CCOCC3)CCCCC2)cc1OC`, the activation was inactive: 1.08%.

Turning to `O=C(NCC1(N2CCOCC2)CCCCC1)c1cc(Br)ccc1Cl`, the activation was inactive: -0.552%. Under `O=C(O)c1cccc(Nc2c([N+](=O)[O-])cc([N+](=O)[O-])cc2[N+](=O)[O-])c1` stands inactive: 1.25%. Consider `CCc1cc(C(=O)NCC2(N3CCCCC3)CCCCC2)sc1C`, for which the activation was inactive: 1.14%. On to `O=C(OC1CN2CCC1CC2)C1c2ccccc2C=Cc2ccccc21` (configuration not stated), for which the activation was inactive: 1.99%.

On to `CCOC(=O)N1CCC(Nc2ccc(C)cc2)CC1`, for which the activation is inactive: 3.11%. As for `N/C(=N\O)c1c(N)no[n+]1[O-]`, the activation is inactive: 0.195%.
